# From patent US20150185215A1, “Cell-Based Assays For Post-Translational Enzyme Activity” (Cell Assay Innovations, Inc., priority 2012, published 2015)
# Protein sequences, listed by entry. Tags and fused reporters are not part of them. Lines headed by an entry give the natural chain unless they say otherwise; changes in a name come on top.
# UniProt Q9P1W9: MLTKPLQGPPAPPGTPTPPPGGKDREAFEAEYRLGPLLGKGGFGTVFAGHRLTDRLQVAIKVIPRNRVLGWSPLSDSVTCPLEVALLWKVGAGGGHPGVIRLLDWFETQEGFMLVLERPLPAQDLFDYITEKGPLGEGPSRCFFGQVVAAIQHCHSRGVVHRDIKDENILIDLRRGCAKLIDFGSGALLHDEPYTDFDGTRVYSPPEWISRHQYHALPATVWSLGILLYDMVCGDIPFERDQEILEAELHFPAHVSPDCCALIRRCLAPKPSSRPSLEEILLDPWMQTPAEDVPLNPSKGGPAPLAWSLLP
# Biological target: Pim-2 (Homo sapiens, UniProt Q9P1W9)
# Test: Pim-2 Ser/Thr kinase BAD-FLAG transphosphorylation ELISA in transiently transfected HEK293F cells
# Format: cell-based
# Settings: HEK293F cells co-expressing Pim-2 and BAD-FLAG, 2 hours compound treatment, Phospho-BAD (Ser112) detection; read-out: IC50, phosphorylation of BAD
structure (smiles),measurement,value
CN1CCC(CNc2ccc3ncc(-c4cccc(OC(F)(F)F)c4)n3n2)CC1 [SGI-1776],IC50,~10 µM
